Ki data for one compound are collected here from patent publication US7825121B2, “Piperazine derivatives useful as CCR5 antagonists” (Schering Corporation, priority 1999, dated 2010).

Amino acid sequences for entries named in this document (tags omitted).
UniProt P51681, whole entry: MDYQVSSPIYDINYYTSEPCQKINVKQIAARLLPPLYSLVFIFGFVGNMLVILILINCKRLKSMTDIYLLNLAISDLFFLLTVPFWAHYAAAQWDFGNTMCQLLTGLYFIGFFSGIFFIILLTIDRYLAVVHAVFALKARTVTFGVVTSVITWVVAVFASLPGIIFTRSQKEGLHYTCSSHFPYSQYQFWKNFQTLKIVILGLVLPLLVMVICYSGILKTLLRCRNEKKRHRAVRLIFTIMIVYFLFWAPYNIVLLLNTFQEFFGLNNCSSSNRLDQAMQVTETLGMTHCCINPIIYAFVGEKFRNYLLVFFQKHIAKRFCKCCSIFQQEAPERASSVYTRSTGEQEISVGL

The target in the experiment is T1, human CCR5 chemokine receptor (Homo sapiens, UniProt P51681).
T1 construct: expressed in transfected cells; host or cells: NIH 3T3 cells (murine), membranes
As to the kind of experiment: CCR5 membrane binding assay (inhibition of RANTES binding). Particulars: 125I-RANTES, membranes from NIH 3T3 cells expressing human CCR5. The method, then:
CCR5 Membrane Binding Assay:
A high throughput screen utilizing a CCR5 membrane binding assay identifies inhibitors of RANTES binding. This assay utilizes membranes prepared from NIH 3T3 cells expressing the human CCR5 chemokine receptor which have the ability to bind to RANTES, a natural ligand for the receptor. […] Compounds are serially diluted over a wide range of 0.001 ug/ml to 1 ug/ml and tested in triplicates. Reaction cocktails are harvested through glass fiber filters, and washed thoroughly.
In the table, “Ex. No.” stands for “Example Number” and “nM” stands for “nanomolar.”

The Ki is a measure of affinity in units of concentration, obtained from inhibition or displacement. The low end stands for tighter binding, the high end for weaker binding.

`Cc1ncnc(C)c1C(=O)N1CCC(C)(N2CCN([C@@H](C)c3ccc(C(F)(F)F)cc3)[C@@H](C)C2)CC1` [Example 23] had a Ki of 2.95 nM.
